Literature values as cited in article PMC6844378, “Structure activity relationship studies on Amb639752: toward the identification of a common pharmacophoric structure for DGKα inhibitors” (Journal of Enzyme Inhibition and Medicinal Chemistry, 2019).

Chains of the proteins cited; added tags and fusions are not shown.
UniProt P23743, whole entry: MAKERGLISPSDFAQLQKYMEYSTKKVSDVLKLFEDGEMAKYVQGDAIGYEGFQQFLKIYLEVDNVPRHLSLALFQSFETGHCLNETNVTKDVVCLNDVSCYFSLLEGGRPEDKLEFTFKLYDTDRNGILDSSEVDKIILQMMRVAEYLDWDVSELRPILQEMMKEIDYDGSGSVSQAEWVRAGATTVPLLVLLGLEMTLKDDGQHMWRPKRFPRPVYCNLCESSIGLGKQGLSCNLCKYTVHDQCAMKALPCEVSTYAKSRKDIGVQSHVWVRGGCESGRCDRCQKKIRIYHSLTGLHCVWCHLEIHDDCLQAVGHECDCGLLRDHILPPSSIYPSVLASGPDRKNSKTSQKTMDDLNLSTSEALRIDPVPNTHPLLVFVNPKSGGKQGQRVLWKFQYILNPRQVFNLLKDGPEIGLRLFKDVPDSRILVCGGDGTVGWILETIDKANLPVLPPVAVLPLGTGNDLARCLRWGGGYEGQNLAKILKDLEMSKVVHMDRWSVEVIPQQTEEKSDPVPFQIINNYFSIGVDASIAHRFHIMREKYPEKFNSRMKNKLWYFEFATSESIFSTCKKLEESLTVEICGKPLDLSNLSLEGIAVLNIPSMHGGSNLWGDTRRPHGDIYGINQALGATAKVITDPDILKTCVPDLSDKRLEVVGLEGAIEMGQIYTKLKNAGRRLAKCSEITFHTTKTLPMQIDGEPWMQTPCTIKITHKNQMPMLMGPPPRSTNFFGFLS

Molecular target: DGKα (Homo sapiens, UniProt P23743)
Details: read-out: IC50 on DGKα; cited from earlier work

Compound: O=C1/C(=C\C=C\c2ccco2)SC(=S)N1NS(=O)(=O)c1ccccc1
- IC50: 600 nM
